# Screening data from PubChem.
# Compounds with a hit are over-represented: about 16% of the library has one in this group of screens.
# DT40 TDP1 CPT: DT40-hTDP1 cell growth loss with CPT. chicken DT40 Tdp1-/-;hTDP1 cells + 20 nM CPT, ATP luminescence, 48 h. Potency, µM (doses to about 46.2 µM), most hits filed as inhibitors. 12% of 420,000 active. AID 686979; note: nearly all actives have a fitted effect of over 55% in size
#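 Chicken DT40 Tdp1-/- cells stably complemented with human TDP1 were seeded at 400 cells/well in medium containing 20 nM camptothecin, exposed to pin-transferred compounds, and grown at 37 °C for at least 48 hr. Viability was read as ATP luminescence.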
# miR-21 reporter: miR-21 reporter, rising signal. 340,000 tested, under 10 active. Potency, µM (highest dose often 38.3 µM). HeLa miR-21 FLuc reporter, luciferase, 48 h. AID 2288; active = well fitted rising curve with a large enough effect; inconclusive = small, poorly fitted or top-dose-only effect; inactive = no such curve, though single readings can be large or run the other way;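 further: miR-21 action dims this reporter so a rising signal means less miR-21 action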
#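 HeLa cells endogenously expressing miR-21, stably carrying CMV-driven firefly luciferase with a downstream miR-21 binding site, 2000 cells/well. Titrations up to approximately 40 uM, 48 hours; luciferase luminescence read.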
# uPA surface inh: blocks generation of uPA at the cell surface; cell surface uPA generation assay, qHTS; Potency, µM (top dose mostly 38.3 µM), actives largely listed as inhibitors; 0.31% of 330,000 active; active = well fitted inhibition curve with a large enough effect; inconclusive = small, poorly fitted or top-dose-only effect; inactive = no such curve, though single readings can be large or run the other way; tested in mouse RAW 264.7 cells; note: nearly all actives have a fitted effect of over 55% in size
# TDP1 block: inhibitors of human tyrosyl-DNA phosphodiesterase TDP1; recombinant TDP1, AlphaScreen DNA substrate cleavage; Q9NUW8; AID 485290; 0.28% of 350,000 active; Potency, µM (series often up to 130 µM), usual class: inhibitors; note: nearly all actives have a fitted effect of over 40% in size
#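 Signal: AlphaScreen proximity between streptavidin donor and anti-FITC acceptor beads on intact substrate. Reaction: Tdp1 1 nM, substrate 15 nM final, 5 min RT after 15 min compound preincubation.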
# DT40 TDP1 no CPT: qHTS for Inhibitors of human tyrosyl-DNA phosphodiesterase 1 (TDP1): qHTS in cells in absence of CPT. DT40 Tdp1-/- hTDP1 cells, no CPT, ATP luminescence, 48 h. Potency, µM (series often up to 46.2 µM), usual class: inhibitors. 15% of 420,000 active. AID 686978, 2013; note: nearly all actives have a fitted effect of over 55% in size
#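 Stably hTDP1-transfected Tdp1-null chicken DT40 cells were treated with library compounds minus camptothecin and grown for at least 48 hr at 37 °C, after which cellular ATP was quantified by luminescence.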
# Hits are given with their value; . = inactive; ? = inconclusive; / = no result given. Unless noted, calls come from the whole dose curve; as a rule, active = well fitted curve in the direction sought with a large enough effect; inconclusive = small, poorly fitted or top-dose-only effect, or another doubt; inactive = no such curve, though single readings can be large; an effect the other way counts as inactive or inconclusive.
SMILES,DT40 TDP1 CPT,miR-21 reporter,uPA surface inh,TDP1 block,DT40 TDP1 no CPT
COc1ccccc1N1CCN(Cc2cc(Br)c(O)c3ncccc23)CC1,6.5µM,?,2.8µM,.,9.2µM
COc1ccccc1N1CCN(Cc2cc(COC(C)C)c3cccnc3c2O)CC1,4.6µM,.,/,.,4.6µM
CCOc1ccccc1N1CCN(Cc2cccc(OC)c2O)CC1,?,.,/,.,?
COc1ccccc1N1CCN(Cc2cc3c(cc2O)OCO3)CC1,.,.,.,/,.
O=C(Cn1ncc2ccsc2c1=O)N1CCN(c2ccc(Cl)cc2)CC1,/,.,/,.,/
CCOC(=O)C1C(=O)C(=O)N(Cc2ccccc2)C1C(=O)OCC (centres undefined),.,/,.,/,.
Cc1noc(C(=O)N2CCN(c3ccccc3)CC2)c1Cl,.,.,.,/,.
COc1cc(CN2CCN(c3cccc(C)c3C)CC2)cc(Br)c1O,13µM,.,.,.,21µM
COc1ccc(CN2CCN(c3cccc(C)c3C)CC2)cc1OC,.,.,.,.,.
NC(=O)C1CCN(C(=O)c2ccc3c(=O)n(Cc4ccco4)c(SCc4ccc([N+](=O)[O-])cc4)nc3c2)CC1,?,.,.,.,?
CCOC(=O)c1[nH]c2ccc(Cl)cc2c1NC(=O)/C=C/c1ccc2c(c1)OCO2,?,.,.,.,?
CCN(CC(=O)Nc1c(C(=O)OC)[nH]c2ccc(Cl)cc12)c1ccc2c(c1)OCO2,?,.,.,.,26µM
O=C1CCCC2=C1C(c1ccc3c(c1)OCO3)c1c([nH]n(-c3ccccc3)c1=O)N2 (centres undefined),.,.,/,.,13µM
COc1cccc(C2C3=C(CCCC3=O)Nc3[nH]n(-c4ccccc4)c(=O)c32)c1 (centres undefined),.,.,.,.,?
Cc1cccc(OCC(=O)Nc2ccc3oc(=O)ccc3c2)c1C,.,.,.,.,.
COc1ccc(-c2nc(/C=C3\C(C)=Nc4ccccc43)c(O)o2)cc1,6.5µM,.,.,.,12µM
COc1ccc(-c2nc3ccccc3o2)cc1NC(=O)c1cccnc1,/,.,/,.,/
COc1ccc(-c2csc(NC(=O)c3ccc(S(C)(=O)=O)cc3)n2)cc1,.,.,.,.,.
COc1ccc(C(C)(O)c2nc(-c3ccc(S(C)(=O)=O)cc3)cs2)cc1 (centres undefined),?,/,/,/,23µM
CC(O)(c1ccc(F)c(F)c1)c1nc(-c2ccncc2)cs1 (centres undefined),21µM,/,/,/,13µM
CC(O)(c1ccc(F)c(F)c1)c1nc(-c2ccc(S(C)(=O)=O)cc2)cs1 (centres undefined),?,/,/,/,16µM
COc1ccc(C(=O)NCCN2CCN(C(=O)c3ccc(OC)cc3)CC2)cc1,.,.,.,.,.
COc1ccc2cccc(N3CCN(CCNC(=O)c4ccc(F)cc4)CC3)c2c1,19µM,/,/,.,21µM
COc1ccccc1N1CCN(CCCCNC(=O)c2ccc3ccccc3c2)CC1,?,/,.,.,21µM
O=C1COc2ccc(C(=O)COC(=O)c3cnc(Cl)c(Cl)c3)cc2N1,.,.,.,.,.
SMILES,DT40 TDP1 CPT,miR-21 reporter,uPA surface inh,TDP1 block,DT40 TDP1 no CPT
O=C(Cn1ccc(NC(=O)OCc2ccccc2)nc1=O)NCCc1c[nH]c2ccccc12,?,/,.,.,?
CCN(CC)CCNC(=O)CCc1c(C)nc2c(c(C)nn2-c2ccc(C)c(C)c2)c1C,?,?,.,/,16µM
Cc1cccc(CCNC(=O)CCc2c(C)nc3c(c(C)nn3-c3ccccc3)c2C)c1,12µM,.,/,.,15µM
COc1ccccc1CNC(=O)CCc1c(C)nc2c(c(C)nn2-c2ccc(C)c(C)c2)c1C,.,.,/,.,.
COc1ccc(CCNC(=O)CCc2c(C)nc3c(c(C)nn3-c3ccc(C)c(C)c3)c2C)cc1OC,21µM,.,/,.,16µM
COCCCNC(=O)CCc1c(C)nc2c(c(C)nn2-c2ccccc2)c1C,.,.,.,/,.
CCc1ccc(-n2c(C)cc(/C=N/NC(=O)c3ccncc3)c2C)cc1,13µM,.,.,.,?
CCc1ccc(-n2c(C)cc(/C=N/NC(=O)OC)c2C)cc1,?,.,.,.,26µM
CCCc1nc2ccc(Cl)cn2c1Cc1ccsc1,21µM,/,/,/,13µM
Cc1cc2nc(-c3cccc(Br)c3)c(CC3CCCCC3)n2c(C)c1Br,.,/,/,/,?
Clc1ccc(-c2nc3ccc(Cl)cn3c2Cc2ccsc2)cc1,.,/,/,/,?
Cc1ccc(-c2nc3cc(C)c(Br)c(C)n3c2Cc2ccsc2)cc1,5.2µM,/,/,/,7.3µM
Cc1ccc(-c2nc3cc(C)c(Br)c(C)n3c2CC(C)(C)C)cc1,9.2µM,/,/,/,16µM
CCCc1nc2cc(C)c(Br)c(C)n2c1Cc1ccsc1,12µM,/,/,/,18µM
Cc1nc(-c2ccc(S(=O)(=O)NCc3cccnc3)s2)cs1,12µM,.,.,.,21µM
Cc1ccccc1CN1CCN(S(=O)(=O)c2ccc(Cl)s2)CC1,23µM,.,.,.,?
Cc1nc(-c2ccc(S(=O)(=O)N3CCN(Cc4ccccc4)CC3)s2)cs1,?,.,.,.,9.2µM
Cc1ccc(S(=O)(=O)NCc2cccnc2)cc1C,.,.,.,/,.
Cc1ccccc1CN1CCN(S(C)(=O)=O)CC1,.,.,.,.,.
Cn1c(SCC(=O)N2CCCC2)nc2ccccc2c1=O,?,.,/,.,.
O=C(NCc1ccc2c(c1)OCO2)c1ccc(NS(=O)(=O)c2ccc3c(c2)OCCO3)cc1,.,.,/,.,.
Cc1ccc2c(c1)C(c1ccccc1)N(C(=O)c1cc3ccccc3oc1=O)CC(=O)N2 (centres undefined),.,.,.,.,?
O=[N+]([O-])c1cccnc1N/N=C/c1ccccc1O,?,.,.,.,9.2µM
O=[N+]([O-])c1ccc(NN=Cc2ccc(O)cc2)nc1,.,/,.,/,.
O=[N+]([O-])c1ccc(NN=Cc2ccc(O)cc2O)nc1,3.3µM,/,.,/,5.8µM
SMILES,DT40 TDP1 CPT,miR-21 reporter,uPA surface inh,TDP1 block,DT40 TDP1 no CPT
O=[N+]([O-])c1ccc(N/N=C/c2ccccc2O)cc1,13µM,.,.,/,8.2µM
O=[N+]([O-])c1cccc(N/N=C/c2cc([N+](=O)[O-])ccc2O)c1,.,.,.,.,?
CCN(CC)S(=O)(=O)c1ccc(N/N=C(\C)c2ccncc2)nc1,23µM,.,.,.,?
COc1cc(/C=N/NC(=O)C2CC(=O)N(c3ccc(C)cc3)C2)cc(OC)c1OC (centres undefined),.,.,.,.,.
O=C(COCc1cc(-c2ccc3c(c2)OCO3)on1)N1CCN(c2ccccc2)CC1,?,.,.,.,?
N#Cc1ccccc1Cn1cc(/C=N/Nc2ccc([N+](=O)[O-])cn2)c2ccccc21,?,.,.,.,23µM
CCN(CC)S(=O)(=O)c1ccc(N/N=C(\C)c2cccnc2)nc1,.,.,?,/,.
